The values below come from ChEMBL document CHEMBL5154885, “Synthesis and biological evaluation of Haspin inhibitors: Kinase inhibitory potency and cellular activity” (Eur J Med Chem, 2022).

By UniProt entry, the sequences of proteins in these tests, tags left out. Where a name states a change or a piece, a line headed by the entry shows the natural chain unless it says otherwise.
UniProt P22518: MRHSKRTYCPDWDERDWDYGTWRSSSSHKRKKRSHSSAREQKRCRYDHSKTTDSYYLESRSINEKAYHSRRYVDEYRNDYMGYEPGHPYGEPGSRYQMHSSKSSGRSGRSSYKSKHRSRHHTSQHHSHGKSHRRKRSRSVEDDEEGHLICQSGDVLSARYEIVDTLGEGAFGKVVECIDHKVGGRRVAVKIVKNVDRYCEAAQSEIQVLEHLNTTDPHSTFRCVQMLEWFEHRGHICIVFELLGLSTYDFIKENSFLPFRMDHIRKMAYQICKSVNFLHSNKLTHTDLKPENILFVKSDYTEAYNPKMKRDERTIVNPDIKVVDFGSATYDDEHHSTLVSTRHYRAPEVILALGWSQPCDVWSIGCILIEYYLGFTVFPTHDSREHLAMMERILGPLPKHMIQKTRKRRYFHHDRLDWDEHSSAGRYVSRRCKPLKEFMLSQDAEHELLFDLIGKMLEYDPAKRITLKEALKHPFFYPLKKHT

Experiment [1] concerns the target Dual specificity protein kinase CLK1 (Mus musculus, UniProt P22518). Put plainly: Inhibition of recombinant mouse CLK1 expressed in bacteria using GRSRSRSRSRSR as substrate in presence of ATP measured after 30 mins by ADP-Glo assay. Background: ADP-Glo first removes unused ATP, then detects ADP through luciferase.
In experiment [2] the target is Dual specificity tyrosine-phosphorylation-regulated kinase 1A (Rattus norvegicus, UniProt Q63470). Briefly: Inhibition of recombinant rat DYRK1A (1 to 499 residues ) expressed in bacterial expression system using KKISGRLSPIMTEQ as substrate measured after 30 mins in presence of ATP by ADP-Glo assay.

Molecules are shown by their SMILES.

On to `COc1ncc2cc3cnccc3c([N+](=O)[O-])c2n1`, for which the IC50 in experiment [1] is 445 nM; in experiment [2], 917 nM.

Consider `CSc1ncc2cc3cnccc3c([N+](=O)[O-])c2n1`, for which, in experiment [1], the IC50 is 221 nM.

The IC50 is the point on the concentration scale where inhibition reaches its midpoint.
